# Apparent affinities of Ab-14 variants for a coronavirus HR2 peptide

Reference: Li et al. 2023, doi:10.1038/s41467-023-39022-2. File: FLAb, binding data.

Antigen: PDVDLGDISGINAS, a 14-residue peptide of the SARS-CoV-2 spike HR2 region.

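Phage display of a naive human antibody library on the peptide gave the parent. This is the validation round: designs drawn from the data on random variants, tested in the same kind of assay. Several design methods are mixed in this list. The scFvs were displayed on barcoded MATa yeast, the peptide on MATalpha yeast. Mating (16 h, 30 °C) was followed by selection of diploids and sequencing of their barcodes. Each replicate has its own calibration line, from reference interactions of the BCL2 family. There are six technical replicates.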

Parent scFv Ab-14: VH joined to VL by three GGGGS repeats. Changes lie in the heavy chain CDRs alone.
VH: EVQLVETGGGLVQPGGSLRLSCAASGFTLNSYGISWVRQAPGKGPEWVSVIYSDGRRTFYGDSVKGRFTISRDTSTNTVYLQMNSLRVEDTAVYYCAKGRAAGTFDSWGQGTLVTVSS
VL: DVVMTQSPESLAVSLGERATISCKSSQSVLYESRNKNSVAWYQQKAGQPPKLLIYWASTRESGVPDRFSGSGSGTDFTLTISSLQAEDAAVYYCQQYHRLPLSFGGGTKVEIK

Each variant is given by its three heavy chain CDRs, as the data file delimits them; those of the parent are GFTLNSYGIS, VIYSDGRRTFYGDSVK, GRAAGTFDS.
Affinities are written as log10 Kd with Kd in nM; a lower number is a better binder.
Where no diploid with the target was found in that replicate, the entry reads "nd": below detection, most likely a poor binder, though not proof of it.

CDR-H1,CDR-H2,CDR-H3,log10 Kd (nM) by replicate
GFDLQEMGIS,VIYADGARKSYTNSVK,GVVGGQMDV,nd / nd / nd / nd / nd / nd
GFQINEYGIS,VIYADGLRAAYSQDVK,GMDTGNFVD,nd / nd / nd / nd / nd / nd
GFDLNEYGIS,VIYADGVRTYYADSVK,GQNAGTFDV,-0.27 / -0.46 / -0.95 / -0.62 / -0.79 / -0.54
GFDLNEYGIS,VIYADGRRTFYTDSVK,GEQAGIFDV,0.02 / -0.14 / 0.14 / -0.18 / 0.02 / 0.02
GFTLNEYGIS,VIYSDGRRWRYGNSVK,GRAAYTFMT,nd / nd / nd / nd / nd / nd
GFDLNEYGIS,VIYADGRRTFYADSVK,GEAAGTFFI,nd / nd / nd / 0.87 / nd / nd
GFTLNSYGIS,VIYSDGLRTFYGDSVK,GRRAGTFDS,1.29 / 2.00 / 2.71 / 2.16 / 2.19 / 2.26
GFSLNSYGIS,VIYSDGRRTFYGDNVK,GMTAGTFDS,0.45 / 0.15 / -0.13 / 0.15 / 0.24 / 0.18
GFSLNEYGIS,VIYSDGRRTFYSDSVK,GKAAGTFDT,0.29 / 0.03 / 0.36 / -0.05 / 0.01 / 0.19
GFELEEYGIS,VIYADGQRTFYADNVK,GDVDTDVHY,nd / nd / nd / nd / nd / nd
GFTLNEYGIS,VIYSDGIRTFYGDSVK,GRAAVTFDQ,nd / nd / nd / nd / nd / nd
GFSLNSYGIS,VIYSDGRRTFYGDSVK,GRTAGAFNS,nd / nd / nd / nd / nd / nd
GFDLEKYGIS,VIYADGKRVAYLDAVK,GGTGGMFMS,1.62 / 0.92 / 0.96 / 0.88 / 0.91 / 1.02
GFQLNSYGIS,VIYSDGRRTFYHDSVK,GRTAGTFDT,nd / nd / 1.60 / 2.39 / 1.36 / nd
GFDLNEYGIS,VIYADGKRTFYSDSVK,GEVAGTFVS,-0.11 / -0.88 / -0.79 / -0.75 / -0.80 / -0.59
GKSLDEYGIS,VIYADGMRAEYQNQVK,GTTVGDFFV,nd / nd / nd / nd / nd / nd
GFHLNDYGIS,VIYSDGRRTFYCDSVK,GRLAGTFDS,2.43 / nd / nd / 1.08 / 1.25 / 1.69
GRDIEDYGIS,VIYADGVRKVYHDSVK,GQVAGFFIT,nd / nd / nd / nd / nd / nd
GFYLNEYGIS,VIYSDGRRTFYGDQVK,GKTAGTFDS,nd / nd / nd / nd / 0.79 / nd
GFELNEYGIS,VIYSDGRRTFYHDSVK,GRAAGTFDQ,1.58 / 0.76 / 1.68 / 1.08 / 1.09 / 1.53
GFTLNEYGIS,VIYSDGRRTFYGDSVK,GRAAVTFDG,nd / nd / nd / nd / nd / nd
GFDLNEYGIS,VIYADGRRTAYSDSVK,GEAAGFFDV,nd / 3.54 / nd / nd / nd / nd
GFELNSYGIS,VIYSDGRRTFYGDSVK,GKNAGTFDT,2.41 / 0.94 / 0.31 / 1.22 / 0.23 / 0.77
GFTLDSYGIS,VIYSDGRRTFYGDSVK,GRIAGVFDS,1.40 / 2.03 / 1.07 / 0.70 / 0.86 / 1.21
GFDLDEYGIS,VIYADGQRTAYTDSVK,GENAGTFDV,-1.04 / -1.05 / -1.07 / -0.63 / -1.19 / -0.52
GFDLDEYGIS,VIYADGSRTAYADSVK,GEVAGTFDI,nd / nd / 1.27 / 0.75 / 0.18 / 1.32
GFDLDEYGIS,VIYADGQRTYYADSVK,GNVAGTFDT,-0.47 / -0.39 / -0.37 / -0.52 / -0.42 / -0.16
GFGLDEYGIS,VIYADGKRTFYADSVK,GENAGTFDM,1.49 / 1.68 / 1.70 / 2.32 / 1.32 / 1.54
GFTLDEYGIS,VIYADGRRTFYADDVK,GETAGTFDI,-0.40 / -0.09 / -0.32 / -0.50 / -0.22 / -0.32
GFDLNEYGIS,VIYADGRRTFYADSVK,GQTAGTFDS,-0.59 / -0.61 / -0.67 / -0.76 / -0.57 / 0.00

Top 2 of the variants detected in all replicates, tightest first:

CDR-H1,CDR-H2,CDR-H3,log10 Kd (nM) by replicate
GFDLDEYGIS,VIYADGQRTAYTDSVK,GENAGTFDV,-1.04 / -1.05 / -1.07 / -0.63 / -1.19 / -0.52
GFDLNEYGIS,VIYADGKRTFYSDSVK,GEVAGTFVS,-0.11 / -0.88 / -0.79 / -0.75 / -0.80 / -0.59

Values of this round are not directly comparable with the first-round values of the same sequences.
In the paper, a design with two or fewer of six values counts as a poor binder.
Background: pairings of all heavy chain designs with three empty control strains gave a value in 1% of cases (median 2.08, 5th percentile 0.84). Values in that range, when seen in few replicates, are hard to tell from nonspecific mating.
Of ten entries with the parent sequence, four were seen in most replicates (averages 0.34 to 2.37), three in one and three in none, so single entries are noisy.